The values below are quoted from earlier work in patent US7422793B2, “Non-toxic corrosion-protection rinses and seals based on rare earth elements” (University of Dayton, priority 2002, dated 2008).

For this data set the following is noted: pH 7; cited from earlier work.
Consider Ammonium tetrafluoroborate, for which the “Solubility in Water” value was 2.4 × 10^0 mole/L.

As for Antimony (III) fluoride, the “Solubility in Water” value was 0.315 mol/L.

With Cobalt (II) fluoride, the “Solubility in Water” value is 0.155 mol/L.

For Copper (II) fluoride, the “Solubility in Water” value is 0.462 mol/L.

With Silver (I) fluoride, the “Solubility in Water” value is 14.3 mol/L.

For the substance Sodium germanate, the “Solubility in Water” value is given as 1.55 × 10^0 mole/L.

On to Sodium periodate, for which the “Solubility in Water” value was 0.67 mol/L.

For Sodium tetrafluoroborate, the “Solubility in Water” value is 9.8 × 10^0 mole/L.

As to Tin (II) fluoride, the “Solubility in Water” value is 0.1 mol/L.
